Values quoted from earlier work in US20260256729A1, “CARBAMOYL PHEN[…] AS TAAR1 AGONISTS” (AXSOME THERAPEUTICS, INC., priority 2022, published 2026).

Sequences of proteins named here, by UniProt entry; tags and fusion partners are left off.
UniProt Q01959, whole entry: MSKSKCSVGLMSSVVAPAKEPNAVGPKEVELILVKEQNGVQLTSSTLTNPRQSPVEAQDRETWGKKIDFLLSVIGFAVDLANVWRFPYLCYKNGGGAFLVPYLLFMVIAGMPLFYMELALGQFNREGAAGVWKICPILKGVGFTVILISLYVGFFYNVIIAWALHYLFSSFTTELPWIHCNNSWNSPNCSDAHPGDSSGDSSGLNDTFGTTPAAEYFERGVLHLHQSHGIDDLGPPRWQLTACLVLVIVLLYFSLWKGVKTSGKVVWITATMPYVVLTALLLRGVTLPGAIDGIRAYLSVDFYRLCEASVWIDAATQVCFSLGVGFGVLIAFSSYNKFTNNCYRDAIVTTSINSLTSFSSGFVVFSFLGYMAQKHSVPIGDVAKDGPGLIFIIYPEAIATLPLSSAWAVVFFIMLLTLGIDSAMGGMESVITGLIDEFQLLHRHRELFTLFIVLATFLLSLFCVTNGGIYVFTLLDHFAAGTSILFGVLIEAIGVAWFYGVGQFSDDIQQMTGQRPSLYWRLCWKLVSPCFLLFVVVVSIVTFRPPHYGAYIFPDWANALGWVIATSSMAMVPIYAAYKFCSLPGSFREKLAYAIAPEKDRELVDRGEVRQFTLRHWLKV

Molecular target: human dopamine transporter (hDAT) (Homo sapiens, UniProt Q01959)
Parameters: host or cells: unnamed cell lines or membrane preparations
Details: data from published literature (footnote b); cited from earlier work

(+)Methamphetamine
IC50: 0.082 µM
